The values below are quoted from earlier work in US7884189B2, “Carboxyltransferase domain of acetyl-CoA carboxylase” (The Trustees of Columbia University in the City of new York, priority 2003, dated 2011).

The structures appear in SMILES notation.

For the data set, the target named is mammalian ACC1 (Rattus norvegicus, UniProt P11497). The following applies: cited from earlier work.

`O=C(c1c2ccccc2cc2ccccc12)N1CCC(N2CCC[C@@H](C(=O)N3CCOCC3)C2)CC1` [CP-640186]: the IC50 was around 55 nM.
